Among the data in patent US12226418B2, “Dosing regimen for the treatment of PI3K related disorders” (Incyte Corporation, priority 2018, dated 2025) are IC50 values, retold here.

Amino acid sequences for entries named in this document (tags omitted). Residues count along the entry.
UniProt P23458, 837-1142: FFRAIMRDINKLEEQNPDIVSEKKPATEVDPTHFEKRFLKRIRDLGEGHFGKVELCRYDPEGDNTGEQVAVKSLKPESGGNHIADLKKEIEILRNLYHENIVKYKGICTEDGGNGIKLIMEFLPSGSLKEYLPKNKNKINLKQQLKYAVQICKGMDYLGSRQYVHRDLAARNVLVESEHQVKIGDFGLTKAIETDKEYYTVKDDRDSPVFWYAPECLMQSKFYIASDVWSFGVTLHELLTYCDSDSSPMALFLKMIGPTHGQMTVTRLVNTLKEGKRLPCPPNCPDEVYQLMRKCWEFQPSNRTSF

The experiment has as its target JAK1 (Homo sapiens (Human), UniProt P23458). Put plainly: JAK1 IC50, Assay A of U.S. Ser. No. 14/680,659 at 1 mM ATP. In kind it is biochemical.

What is called IC50 is the concentration at which inhibition is half-maximal. Low values mean higher potency, high ones lower potency. For `CN(C)Cc1cc(F)cc(OC2CCN(CC(CC#N)n3cc(-c4ncnc5[nH]ccc45)cn3)CC2)c1` (stereo not shown) [Example 14, 4-(4-{3-[(dimethylamino)methyl]-5-fluorophenoxy}piperidin-1-yl)-3-[4-(7H-pyrrolo[2,3-d]pyrimidin-4-yl)-1H-pyrazol-1-yl]butanenitrile], the IC50 was under 10 nM.
